One assay deals with NSP14 MTase (Severe acute respiratory syndrome coronavirus 2, UniProt P0DTD1). The conditions noted are these: for effect of detergent concentration on potency, NSP14 MTase: 0.1% vs 0.01% Tween-20 or no detergent; for NSP14 MTase activity inhibition: dose response, highest dose tested 40 μM.
Assay [1] concerns the target NSP10–14 fusion (NSP14 ExoN) (Severe acute respiratory syndrome coronavirus 2, UniProt P0DTD1).
Setting [2] is: AUC of dose response, structure cluster analysis.

Molecules are shown by their SMILES.

Turning to `O=c1c2ccccc2[se]n1-c1ccccc1` [Ebselen], on NSP14 MTase, the “effect of detergent concentration on potency, NSP14 MTase” value (“effect … NSP14 MTase” for short) was “increased potency with higher detergent concentrations” and the “NSP14 MTase activity inhibition” value is “inhibited”.

On to `CC(=O)N1CCN(c2ccc(C(=O)N3CCN(Cc4ccccc4)CC3)nn2)C(=O)C1` [NCGC00537446], for which the “effect … NSP14 MTase” value at NSP14 MTase is “ruled out any detergent-driven inhibition mechanism”. For the same molecule, the “activity against MTase” value on NSP14 MTase (setting [2]) is listed as “high activity”. Also, the “effect of detergent concentration on potency, NSP10–14 activity assay” value in assay [1] (0.1% vs 0.01% Tween-20) is “ruled out any detergent-driven inhibition mechanism”. For the same molecule, the “activity against ExoN” value in assay [1] (setting [2]) is recorded as “high activity”.

Consider `Nc1nc(OCc2cc(Br)cs2)c2[nH]cnc2n1` [Lomeguetrib, Lomeguatrib], for which the “NSP14 MTase activity inhibition” value at NSP14 MTase was “outside our assay window”.

Turning to `Nc1ncnc2c1ncn2[C@@H]1O[C@H](C[C@@H](N)CC[C@H](N)C(=O)O)[C@@H](O)[C@H]1O` [Sinefungin], the “effect … NSP14 MTase” value on NSP14 MTase is “increased potency with higher detergent concentrations”.

Turning to `CCC(Sc1nnc2c(n1)[nH]c1ccccc12)C(=O)N1c2ccccc2Sc2ccccc21` (stereo not drawn) [Inauzhin], the “NSP14 MTase activity inhibition” value on NSP14 MTase is “outside our assay window”.

(Values after article PMC12965331 (Biochemistry, 2025).)
